What was measured:
Mus musculus [1] = experiment: In vivo antinociceptive potency determined in tail-flick test in mice
Mus musculus [2] = experiment: In vivo antinociceptive potency determined in hot plate assay in mice
Mus musculus [3] = experiment: In vivo antinociceptive potency determined in paraphenylquinone writhing test in mice
Mu-type opioid receptor = Mu-type opioid receptor (Rattus norvegicus, UniProt P33535); experiment: Binding affinity against Opioid receptor mu 1 isolated from rat brain membrane was determined using [3H]DAMGO as radioligand
[4] = target: Kappa-type opioid receptor (Rattus norvegicus, UniProt P34975); experiment: Binding affinity against Opioid receptor kappa 1 isolated from rat brain membrane was determined using [3H]U-69593 as radioligand
[5] = target: Delta-type opioid receptor (Rattus norvegicus, UniProt P33533); experiment: Binding affinity against Opioid receptor delta 1 isolated from rat brain membrane was determined using [3H][Ile]-deltorphin as radioligand

Amino acid sequences for entries named in this document (tags omitted).
UniProt P33535, whole entry: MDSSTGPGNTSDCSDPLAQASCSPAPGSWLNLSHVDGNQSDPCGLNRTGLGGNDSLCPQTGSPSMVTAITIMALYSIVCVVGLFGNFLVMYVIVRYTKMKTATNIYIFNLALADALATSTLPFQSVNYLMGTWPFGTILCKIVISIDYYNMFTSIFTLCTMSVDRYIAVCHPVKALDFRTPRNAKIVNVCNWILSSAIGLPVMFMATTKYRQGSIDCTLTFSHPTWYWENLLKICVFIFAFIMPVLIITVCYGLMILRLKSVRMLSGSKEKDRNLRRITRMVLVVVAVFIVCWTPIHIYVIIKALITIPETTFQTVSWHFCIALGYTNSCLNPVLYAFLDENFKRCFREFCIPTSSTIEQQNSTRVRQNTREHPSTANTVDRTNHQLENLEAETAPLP
UniProt P34975, whole entry: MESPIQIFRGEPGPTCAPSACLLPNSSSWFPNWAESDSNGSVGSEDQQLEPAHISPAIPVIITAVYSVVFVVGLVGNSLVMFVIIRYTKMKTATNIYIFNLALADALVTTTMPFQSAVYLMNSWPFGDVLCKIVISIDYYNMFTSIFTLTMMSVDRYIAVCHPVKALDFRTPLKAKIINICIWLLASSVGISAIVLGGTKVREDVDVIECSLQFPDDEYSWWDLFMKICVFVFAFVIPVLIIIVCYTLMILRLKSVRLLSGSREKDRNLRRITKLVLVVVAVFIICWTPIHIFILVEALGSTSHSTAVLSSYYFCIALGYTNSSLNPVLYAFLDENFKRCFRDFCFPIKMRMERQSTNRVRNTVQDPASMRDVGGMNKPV
UniProt P33533, whole entry: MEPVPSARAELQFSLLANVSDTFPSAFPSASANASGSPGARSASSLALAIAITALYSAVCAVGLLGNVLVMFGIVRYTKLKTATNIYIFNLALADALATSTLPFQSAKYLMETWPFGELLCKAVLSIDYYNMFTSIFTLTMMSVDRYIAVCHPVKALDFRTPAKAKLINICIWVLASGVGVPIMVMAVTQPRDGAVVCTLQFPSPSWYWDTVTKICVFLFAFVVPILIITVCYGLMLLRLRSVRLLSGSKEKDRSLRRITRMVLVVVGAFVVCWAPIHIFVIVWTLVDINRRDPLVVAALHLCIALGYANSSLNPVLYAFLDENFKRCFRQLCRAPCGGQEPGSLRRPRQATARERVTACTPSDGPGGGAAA

Structure (SMILES) | ED50 (Mus musculus [1]) | ED50 (Mus musculus [2]) | ED50 (Mus musculus [3]) | Ki (Mu-type opioid receptor) | Ki [4] | Ki [5]
C#CCOc1ccc2c3c1O[C@@]1(C)C(=O)C=C[C@@](OCCCc4ccccc4)(C(NC)C2)[C@@]31CCC (stereo not given in full) | 21 µg/kg | 38 µg/kg | 9 µg/kg | 0.73 nM | 24.1 nM | 13.1 nM
CCC[C@]12c3c4ccc(OC)c3O[C@@]1(C)C(=O)C=C[C@@]2(OCCCc1ccccc1)C(NC)C4 (stereo not given in full) | 4.4 µg/kg | 2.6 µg/kg | 1.7 µg/kg | 0.62 nM | 25 nM | 6.33 nM
CCC[C@]12c3c4ccc(O)c3O[C@@]1(C)C(=O)C=C[C@@]2(OCCCc1ccccc1)C(NC)C4 (stereo not given in full) | 0.08 µg/kg | 0.1 µg/kg | 0.16 µg/kg | 0.2 nM | 0.4 nM | 0.14 nM
CCC[C@@]12c3c(ccc(OC)c3OC)CC(NC)[C@]1(OCCCc1ccccc1)C=CC(=O)[C@H]2C (stereo not given in full) [listing 1 of 2 here] | – | – | – | 0.65 nM | 2.26 nM | 0.76 nM
CCC[C@]12c3c4ccc(OC)c3O[C@@]1(C)C(=O)CC[C@@]2(OC)C(NC)C4 (stereo not given in full) | 30 µg/kg | 30 µg/kg | 9 µg/kg | 0.15 nM | 26.9 nM | 13.3 nM
CCC[C@@]12c3c(ccc(OC)c3OC)CC(NC)[C@]1(OCCCc1ccccc1)C=CC(=O)[C@H]2C (stereo not given in full) [listing 2 of 2 here] | 14 µg/kg | 22 µg/kg | 2.3 µg/kg | – | – | –

From ChEMBL document CHEMBL1145093, “Synthesis and biological evaluation of 14-alkoxymorphinans. 20. 14-phenylpropoxymetopon: an extremely powerful analgesic” (2003)
